Assay results taken from US20240423942A1, “PHARMACEUTICAL COMPOSITION INCLUDING RETINOIC ACID AND CARBOHYDRATE AND USE THEREOF” (Mastery Biotech CO., LTD., priority 2022, published 2024).

Biological target: SARS-COV-2 PLpro (Severe acute respiratory syndrome coronavirus 2, UniProt P0DTD1)
Experiment: biochemical
Conditions: read-out: Inhibition percentage (%)
Experimental: The enzymatic activity of SARS-COV-2 PLpro obtained above was measured by a colorimetry-based peptide cleavage assay, using the 6-mer peptide substrate, FRLKGG-para-nitroanilide (FG6-pNA) (purity 97% by HPLC; GL Biochem Ltd., Shanghai, China). In the cleavage assay, the 6-mer peptide substrate was cleaved at the Gly-pNA bond to release free pNA, which turned the color of the solution to yellow. The enzymatic activity was determined by continuously monitoring the absorbance at 405 nm (A405) using a 96-well microplate spectrophotometer (Epoch™ 2, Biotek) at 30° C.
An enzyme inhibition assay was performed in a 96-well microplate. […]
20 μL of FG6-pNA (1.2 mM) described above was added into the test mixture of the respective group to initiate the enzyme reaction. […] The enzymatic activity was determined by continuously monitoring the absorbance at 405 nm (A405) using a 96-well microplate spectrophotometer (Epoch™ 2, Biotek). The reaction rate was calculated accordingly, wherein the reaction rate is the slope of the absorbance A405 versus time (seconds) for a total reaction time of 300 seconds.
The inhibition percentage was calculated using the following equation: […]
20 μL of FG6-pNA (1.2 mM) described above was added into the test mixture of the respective group to initiate the enzyme reaction. […] The inhibition percentage was calculated as described in Example 3.

Which inhibition at 50 µM does the source give for `CC1=C(/C=C/C(C)=C/C=C/C(C)=C\C(=O)O)C(C)(C)CCC1` [isotretinoin, 13-cis-retinoic acid, reference compound] here?
Its inhibition at 50 µM is 20.9 ± 1.24%.
